Source: ChEMBL document CHEMBL3351908, “Alpha-ethyltryptamines as dual dopamine-serotonin releasers” (2014)

Chains of the proteins cited; added tags and fusions are not shown.
UniProt P28223, whole entry, looked up: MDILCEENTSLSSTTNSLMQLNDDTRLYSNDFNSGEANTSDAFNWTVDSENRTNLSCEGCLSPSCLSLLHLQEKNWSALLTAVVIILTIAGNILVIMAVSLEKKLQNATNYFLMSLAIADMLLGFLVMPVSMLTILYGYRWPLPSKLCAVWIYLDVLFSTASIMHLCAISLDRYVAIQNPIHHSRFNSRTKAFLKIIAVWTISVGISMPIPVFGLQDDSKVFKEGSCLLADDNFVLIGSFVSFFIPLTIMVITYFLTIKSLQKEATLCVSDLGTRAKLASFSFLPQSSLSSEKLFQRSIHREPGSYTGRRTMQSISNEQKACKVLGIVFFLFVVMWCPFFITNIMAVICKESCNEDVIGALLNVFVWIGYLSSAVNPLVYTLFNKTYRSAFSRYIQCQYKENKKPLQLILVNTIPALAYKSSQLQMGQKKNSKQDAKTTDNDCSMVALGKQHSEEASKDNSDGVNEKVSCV

Experiments:
[1] = biological target: 5-hydroxytryptamine receptor 2A (Homo sapiens) (UniProt P28223); test: Agonist activity at 5HT2A receptor (unknown origin) by cell based calcium mobilization assay relative to control
[2] = biological target: 5-hydroxytryptamine receptor 2A (Homo sapiens) (UniProt P28223); test: Agonist activity at 5HT2A receptor (unknown origin) at 10 uM by cell based calcium mobilization assay
[3] = biological target: Norepinephrine transporter (Rattus norvegicus) (UniProt Q9WTR4); test: Induction of NET-mediated norepinephrine release in rat brain synaptosomes by [3H]NE release assay relative to control
[4] = species: Rattus norvegicus; test: Selectivity index, ratio of EC50 for NET-mediated norepinephrine release in rat brain synaptosomes to EC50 for DAT-mediated dopamine release in rat brain synaptosomes

| SMILES | Emax [1] | further results |
| --- | --- | --- |
| NCCc1c[nH]c2ccc(Br)cc12 | 108% |  |
| CNCCc1c[nH]c2ccccc12 | 96% |  |
| NCCc1c[nH]c2cccc(F)c12 | 108% |  |
| COc1cccc2[nH]cc(CCN)c12 | 108% |  |
| NCCc1c[nH]c2cc(F)ccc12 | 101% |  |
| CC[C@H](N)Cc1c[nH]c2ccccc12 | inactive | Activity [2]: inactive; Emax [3]: 75% |
| Cc1cccc2c(CCN)c[nH]c12 | 103% |  |
| CCC(N)Cc1c[nH]c2ccccc12 (stereo not drawn) | 21% | Emax [3]: 78% |
| CC(N)Cc1c[nH]c2ccc(F)cc12 (stereo not drawn) | 107% | Ratio EC50 [4]: 4 |
| Cn1cc(CCN)c2ccccc21 | 99% |  |
| CC(N)Cc1c[nH]c2ccc(Cl)cc12 (stereo not drawn) | 105% | Ratio EC50 [4]: 63 |
| COc1cccc2c(CCN)c[nH]c12 | 107% |  |
| CC[C@@H](N)Cc1c[nH]c2ccccc12 | 61% | Emax [3]: 71% |
| NCCc1c[nH]c2c(Cl)cccc12 | 102% |  |
| COc1ccc2c(CCN)c[nH]c2c1 | 111% |  |
| CCC(N)Cc1c[nH]c2ccc(Cl)cc12 (stereo not drawn) | 87% |  |
| CCC(N)Cc1c[nH]c2ccc(F)cc12 (stereo not drawn) | 87% | Ratio EC50 [4]: 36 |
| NCCc1c[nH]c2ccc(F)cc12 | 110% |  |
| Cc1ccc2c(CCN)c[nH]c2c1 | 110% |  |
| NCCc1c[nH]c2ccc(Cl)cc12 | 109% |  |
| Cc1ccc2[nH]cc(CCN)c2c1 | 100% |  |

Activity calls are given as the source filed them. The rule behind the calls is not given here.
